In article PMC7341485 (Chemical research in toxicology, 2019):
Structures can show the parent of a compound that is named as a salt. Where two headings read alike, the source gives them in different places.

Assays:
[1] = test system: human embryonic H9-derived neural stem cells (NSCs)
[2] = test system: TGFβ1-induced SMAD3 phosphorylation (pSMAD3 Ser 423/425)

| Structure (SMILES) | cytotoxicity in NSCs at 5 h [1] | cytotoxicity in NSCs at 5 h ([1]; 5 h treatment) | effect on TGFβ1-induced SMAD3 phosphorylation (pSMAD3 level), in words [2] | also measured |
| --- | --- | --- | --- | --- |
| CC(C)n1nc(-c2cc3cc(O)ccc3[nH]2)c2c(N)ncnc21 [pp242] | not at 5 h | – | – | – |
| CN1CC[C@H](c2c(O)cc(O)c3c(=O)cc(-c4ccccc4Cl)oc23)[C@H](O)C1 [flavopiridol hydrochloride] | – | not at 5 h | – | cytotoxicity in NSCs at 24 h ([1]; 24 h treatment): invoked NSC cytotoxicity |
| Cc1nc(Nc2ncc(C(=O)Nc3c(C)cccc3Cl)s2)cc(N2CCN(CCO)CC2)n1 [dasatinib] | – | not at 5 h | – | effect on TGFβ1-induced SMAD3 phosphorylation (pSMAD3 level), in words ([2]; HepG2, 1 h, Figure 4): pSMAD3 level was decreased |
| C[C@@]12C(=O)OC(=O)[C@]1(C)[C@H]1CC[C@@H]2O1 [cantharidin, reference compound] | – | – | pSMAD3 level was decreased | – |
| CN1C(=O)N(c2ccccc2Br)Cc2cnc(Nc3ccc4c(c3)OCC(CO)O4)nc21 (stereo not drawn) [PharmaGSID_48519] | not at 5 h | – | inhibited SMAD3 phosphorylation | concentration eliminating / completely abolishing TGFβ1-elevated pSMAD3 level [2]: 15 μM |
